Data from patent US20230158001A1, “PHARMACEUTICAL COMPOSITION COMPRISING BENZIMIDAZOLE DERIVATIVE COMPOUND” (HK INNO.N CORPORATION, priority 2020, published 2023).

Test: Pharmacokinetic interaction of tegoprazan and celecoxib, alone or in combination (Cohort 3)
Conditions: celecoxib; co-administered with tegoprazan vs alone

Question: For `Cc1ccc(-c2cc(C(F)(F)F)nn2-c2ccc(S(N)(=O)=O)cc2)cc1` [Celecoxib, celecoxib, reference compound], which “AUCτ, Geometric LS Mean Ratio (Treatment G/Treatment F), Point Estimate” value is on record?
Answer: 1.0826

Question: And the “Css,max, Geometric LS Mean Ratio (Treatment G/Treatment F), Point Estimate” value?
Answer: 1.1811
